From PubChem BioAssay AID602329 (Broad Institute, 2012)
The list shows a part of the results, in another mix than the full data. Activity calls are given as the source filed them.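 Rule for the calls: active = mean normalized replicate activity at least 40 and at least half of replicates scoring 40 or more; inconclusive = only one of the two criteria met; inactive = mean below 40 and under half of replicates reaching 40.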

The chains behind the UniProt entries cited, without tags or fusion partners.
UniProt Q92698, whole entry: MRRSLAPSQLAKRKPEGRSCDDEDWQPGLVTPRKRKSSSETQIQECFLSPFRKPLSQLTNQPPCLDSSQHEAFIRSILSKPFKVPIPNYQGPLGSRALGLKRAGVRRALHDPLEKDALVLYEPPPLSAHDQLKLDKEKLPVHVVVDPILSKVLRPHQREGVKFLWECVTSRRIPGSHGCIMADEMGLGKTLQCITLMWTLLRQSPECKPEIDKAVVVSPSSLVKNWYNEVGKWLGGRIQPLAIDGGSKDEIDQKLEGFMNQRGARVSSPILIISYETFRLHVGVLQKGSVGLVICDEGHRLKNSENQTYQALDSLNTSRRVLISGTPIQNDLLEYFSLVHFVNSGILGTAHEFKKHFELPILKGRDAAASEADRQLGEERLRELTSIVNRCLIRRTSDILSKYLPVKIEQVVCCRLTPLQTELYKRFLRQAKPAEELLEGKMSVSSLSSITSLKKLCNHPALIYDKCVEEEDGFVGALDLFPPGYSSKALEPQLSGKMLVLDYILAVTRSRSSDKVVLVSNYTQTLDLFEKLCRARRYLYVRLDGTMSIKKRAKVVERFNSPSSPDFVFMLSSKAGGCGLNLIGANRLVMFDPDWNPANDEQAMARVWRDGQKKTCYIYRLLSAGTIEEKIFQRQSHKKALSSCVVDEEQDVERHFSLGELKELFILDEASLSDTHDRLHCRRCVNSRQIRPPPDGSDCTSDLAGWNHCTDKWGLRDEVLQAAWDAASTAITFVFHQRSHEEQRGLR

These molecules were tested against DNA repair and recombination protein RAD54-like (Homo sapiens) (UniProt Q92698) (assay: inhibitors of human RAD54 branch migration, primary screen, biochemical, fluorescence, single point (AID 602329;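 note: 0% = median of neutral control wells and 100% = median of positive control wells; inhibitors cause a drop in the FAM fluorescence signal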)). Conditions: RAD54 Holliday junction branch migration, FAM/BHQ fluorescence; at 10.4 µM; active compounds read high.

Compound | inhibition
CCC(=O)N(c1ccccc1)C1(COC)CCN(CCc2cccs2)CC1 | inactive: -8.26%
CCC(=O)N(c1ccccc1)C1(COC)CCN(CCn2nnn(CC)c2=O)CC1 | inactive: -12.8%
